Legend:
[1] = target: T1, Bifunctional dihydrofolate reductase-thymidylate synthase (Toxoplasma gondii, UniProt Q07422)
T1 sequence (Q07422 whole entry): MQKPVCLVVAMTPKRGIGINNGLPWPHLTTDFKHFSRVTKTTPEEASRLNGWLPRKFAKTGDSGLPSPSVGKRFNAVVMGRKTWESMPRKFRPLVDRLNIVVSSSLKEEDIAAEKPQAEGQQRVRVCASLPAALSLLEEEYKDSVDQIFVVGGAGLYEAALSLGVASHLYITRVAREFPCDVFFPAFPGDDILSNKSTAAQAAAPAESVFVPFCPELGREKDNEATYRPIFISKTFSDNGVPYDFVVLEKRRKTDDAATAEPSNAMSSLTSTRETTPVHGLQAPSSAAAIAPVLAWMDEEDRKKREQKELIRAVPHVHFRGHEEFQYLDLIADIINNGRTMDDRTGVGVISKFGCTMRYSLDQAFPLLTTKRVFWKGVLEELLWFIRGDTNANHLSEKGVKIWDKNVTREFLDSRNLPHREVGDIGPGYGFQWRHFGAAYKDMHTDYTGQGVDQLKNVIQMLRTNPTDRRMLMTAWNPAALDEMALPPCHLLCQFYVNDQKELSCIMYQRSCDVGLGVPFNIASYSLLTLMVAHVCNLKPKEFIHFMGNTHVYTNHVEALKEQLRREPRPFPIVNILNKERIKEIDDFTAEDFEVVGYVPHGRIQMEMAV

[2] = target: T1, Bifunctional dihydrofolate reductase-thymidylate synthase; assay: Inhibition of recombinant Dihydrofolate reductase from Toxoplasma gondii (tgDHFR)
[3] = target: T2, Dihydrofolate reductase (Rattus norvegicus, UniProt Q920D2); assay: Inhibitory activity against Dihydrofolate reductase from rat liver (rlDHFR)
T2 sequence (Q920D2 whole entry): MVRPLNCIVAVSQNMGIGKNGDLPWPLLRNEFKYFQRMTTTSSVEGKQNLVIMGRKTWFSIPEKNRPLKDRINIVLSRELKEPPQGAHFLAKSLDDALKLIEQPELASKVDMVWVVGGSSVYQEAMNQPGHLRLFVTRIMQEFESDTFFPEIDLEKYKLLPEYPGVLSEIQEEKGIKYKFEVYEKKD

| Compound | IC50 [1] | IC50 [2] | IC50 [3] |
| --- | --- | --- | --- |
| COc1cc(OC)c(CNc2ccc3nc(N)nc(N)c3c2)c(OC)c1 | 950 nM | 750 nM | – |
| COc1ccc(OC)c(CN(C)c2ccc3nc(N)nc(N)c3c2)c1 | – | – | 26 nM |
